Here are results for 1 compound from patent US9517230B2, “Small molecule RNase inhibitors and methods of use” (UNIVERSITY OF ROCHESTER, priority 2011, dated 2016).

The subject of this series is HepG2 human hepatocytes. Briefly: HepG2 MTT cytotoxicity assay. In kind it is cell-based. The conditions noted are these: 1×, 2×, 4× the MIC value for 48 hours.

Take `O=C1NC(=S)N(c2ccc(Cl)cc2)C(=O)C1=Cc1ccc(-c2ccccc2C(=O)O)o1`: the “human cell cytotoxicity / cell survival (in words)” value was “elicits human toxic effects”.
